Test results: patent publication US20150025061A1, “GABAA RECEPTOR A[…] GANGLION CELL FUNCTION AND VISUAL ACUITY” (Allergan, Inc., priority 2013, published 2015)

Conditions: intravitreal 15 uM (50 uL of 360 uM) into both eyes; N=4 eyes/time-point

Question: Which “persistence in ocular tissues: maintained levels in the retina and choroid, time after injection” value does the source give for `Br.COc1ccc(-c2ccc(=N)n(CCCC(=O)O)n2)cc1` [SR95531, 6-Imino-3-(4-methoxyphenyl)-1(6H)-pyridazinebutanoic acid hydrobromide] here?
Answer: up to 1 week
